From patent publication US20080242600A1, “Backbone Cyclized Melanocortin Stimulating Hormone (Alpha Msh) Analogs” (priority 2005, published 2008)

The chains behind the UniProt entries cited, without tags or fusion partners.
UniProt P32245, whole entry: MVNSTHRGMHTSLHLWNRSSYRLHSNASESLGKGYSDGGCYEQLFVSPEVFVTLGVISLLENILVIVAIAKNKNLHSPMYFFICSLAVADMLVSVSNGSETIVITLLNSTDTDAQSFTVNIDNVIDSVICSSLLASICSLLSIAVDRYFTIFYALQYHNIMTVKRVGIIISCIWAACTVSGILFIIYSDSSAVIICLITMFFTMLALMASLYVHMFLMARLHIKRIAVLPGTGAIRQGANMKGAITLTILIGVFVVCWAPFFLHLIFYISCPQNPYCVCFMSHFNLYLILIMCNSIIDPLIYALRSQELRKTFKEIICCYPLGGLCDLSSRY

Molecular target: MC4R (Homo sapiens, UniProt P32245)
Test: Receptor binding assay (IC50 on the MC4R)

- IC50: 100 nM
SMILES: N=C(N)NCCC[C@@H]1NC(=O)[C@@H](Cc2ccccc2)NC(=O)[C@H](Cc2ccccc2)NC(=O)c2ccc(cc2)C(=O)NCCN(CC(N)=O)C(=O)[C@H](Cc2c[nH]c3ccccc23)NC1=O
